According to patent publication US10792633B2, “Composition comprising a fluorine-containing surfactant” (HWK-Kronbichler GmbH, priority 2016, dated 2020):

Legend:
[1] = Determining the solubility in water; type: physicochemical; details: values not exact
Protocol: The suspension was added to the ultrasound bath for 5 minutes and was centrifuged for 20 minutes. The supernatant was then weighed and was rinsed with argon for 5 minutes to remove any possibly dissolved oxygen. […] The experiment was performed at approximately 23° C.

[2] = Solubility in organic solvents; type: physicochemical

| Substance | Solubility in water [1] [mg/mL] | Solubility in 3M Novec 71 IPA ([2]; 3M™ Novec™ 71 IPA) [mg/mL] | Solubility in DMSO ([2]; DMSO) [mg/mL] | Solubility in MeOH ([2]; MeOH) [mg/mL] | Solubility ([2]; Et2O) [mg/mL] | Solubility ([2]; MeCN) [mg/mL] |
| --- | --- | --- | --- | --- | --- | --- |
| 1-methyl-2-((1H,1H,2H,2H-perfluorooctyl)thio)imidazoliumiodide [Synthesis Example 3] | <1 | 9.6 | 740 | 1300 | – | – |
| 3-((3-octyl-1-(1H,1H,2H,2H-perfluorooctyl)imidazolium-2-yl)thio)propane-1-sulfonate [Synthesis Example 7] | – | – | – | – | 0.5 | 9.0 |
